Broadly, the IC50 is the midpoint of a concentration-inhibition curve.

Protein sequences, listed by entry. Tags and fused reporters are not part of them.
UniProt Q12809, whole entry: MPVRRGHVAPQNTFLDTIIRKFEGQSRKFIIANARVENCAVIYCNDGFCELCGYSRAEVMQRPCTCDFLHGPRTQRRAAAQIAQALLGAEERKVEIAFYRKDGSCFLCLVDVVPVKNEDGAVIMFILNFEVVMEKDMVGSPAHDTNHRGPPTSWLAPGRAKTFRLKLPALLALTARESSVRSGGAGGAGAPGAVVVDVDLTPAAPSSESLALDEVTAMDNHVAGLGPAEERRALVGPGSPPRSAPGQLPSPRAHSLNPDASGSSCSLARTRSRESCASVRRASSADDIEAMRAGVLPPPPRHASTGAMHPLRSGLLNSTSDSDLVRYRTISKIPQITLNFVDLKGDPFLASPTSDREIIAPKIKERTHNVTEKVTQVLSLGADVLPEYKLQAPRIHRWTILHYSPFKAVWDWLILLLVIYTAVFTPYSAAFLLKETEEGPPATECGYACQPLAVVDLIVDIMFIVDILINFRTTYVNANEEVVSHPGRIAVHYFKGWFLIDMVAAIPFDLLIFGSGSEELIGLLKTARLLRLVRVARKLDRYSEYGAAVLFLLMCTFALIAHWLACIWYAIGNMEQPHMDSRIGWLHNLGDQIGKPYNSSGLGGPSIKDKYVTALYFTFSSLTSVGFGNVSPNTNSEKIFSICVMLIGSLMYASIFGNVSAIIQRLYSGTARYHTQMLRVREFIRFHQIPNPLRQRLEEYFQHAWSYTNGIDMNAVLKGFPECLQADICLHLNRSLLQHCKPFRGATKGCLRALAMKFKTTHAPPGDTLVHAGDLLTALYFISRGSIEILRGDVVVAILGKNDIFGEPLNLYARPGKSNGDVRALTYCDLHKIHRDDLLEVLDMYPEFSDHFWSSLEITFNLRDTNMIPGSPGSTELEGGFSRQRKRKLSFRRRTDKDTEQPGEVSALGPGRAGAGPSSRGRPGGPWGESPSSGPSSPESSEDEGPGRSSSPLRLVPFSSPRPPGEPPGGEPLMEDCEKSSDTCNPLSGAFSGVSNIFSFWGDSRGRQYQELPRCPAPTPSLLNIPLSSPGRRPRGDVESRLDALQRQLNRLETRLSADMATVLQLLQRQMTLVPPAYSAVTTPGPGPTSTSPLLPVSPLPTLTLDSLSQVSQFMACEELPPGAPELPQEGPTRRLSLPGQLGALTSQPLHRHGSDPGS
UniProt Q06124, whole entry: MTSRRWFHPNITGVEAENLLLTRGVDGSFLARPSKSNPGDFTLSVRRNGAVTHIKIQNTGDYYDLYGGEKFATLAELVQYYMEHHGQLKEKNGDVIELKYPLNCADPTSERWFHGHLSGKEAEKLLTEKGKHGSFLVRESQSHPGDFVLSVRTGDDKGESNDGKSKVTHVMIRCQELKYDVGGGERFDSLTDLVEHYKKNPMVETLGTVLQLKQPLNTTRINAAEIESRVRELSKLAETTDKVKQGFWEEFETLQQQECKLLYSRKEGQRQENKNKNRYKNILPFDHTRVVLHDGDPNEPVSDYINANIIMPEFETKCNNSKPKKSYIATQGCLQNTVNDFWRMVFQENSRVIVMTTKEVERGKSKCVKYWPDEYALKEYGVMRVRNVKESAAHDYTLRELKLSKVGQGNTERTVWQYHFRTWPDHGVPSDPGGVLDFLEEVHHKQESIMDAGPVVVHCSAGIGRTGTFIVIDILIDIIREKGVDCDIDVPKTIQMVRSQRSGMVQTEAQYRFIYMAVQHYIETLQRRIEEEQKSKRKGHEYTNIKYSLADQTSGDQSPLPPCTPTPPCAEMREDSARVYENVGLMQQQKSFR

Results on one compound are retold here after patent US20230212180A1, “SUBSTITUTED PYRAZINE COMPOUND, PHARMACEUTICAL COMPOSITION COMPRISING SAME, AND USE THEREOF” (Sichuan Kelun-Biotech Biopharmaceutical Co., Ltd., priority 2020, published 2023).

Data set [1] concerns the target hERG (Homo sapiens, UniProt Q12809). The data set is described as follows: Biochemical assay for hERG inhibition (Predictor hERG Fluorescence Polarization Assay Kit). Conditions: read-out: IC50 (μM), hERG inhibition assay; competition with affinity tracer 1 nM, 2 hours; tested form: trifluoroacetate. How it is done:
Test Example 3: Biochemical Assay for hERG Inhibition
kit: Predictor™ hERG Fluorescence Polarization Assay Kit (ThermoFisher) containing:
Compound E4031 as a positive control;
tracer concentration: 1 nM;
incubation duration: 2 hours;
parameters for microplate reader: BMG PHERAstar FS fluorescence microplate reader.
Test group: The test compounds at different concentrations were added into a microplate containing hERG cell membrane, and the tracer with a high affinity for hERG was then added into each well. The microplate was incubated at 25° C. for 2 hours before detection of the change in fluorescence polarization value (mP) (excitation wavelength: 540 nm; emission wavelength: 590 nm) using a multi-mode microplate reader.
Positive control group: The experimental method for the positive control group was the same as that for the test group, except that the test compound was replaced with 30 μM Compound E4031.
Blank control group: The experimental method for the blank control group was the same as that for the test group, except that the test compound was replaced with the hERG buffer and that the hERG cell membrane was not added.
Based on the data ratios, the percentage inhibition (%) of the compounds of the present disclosure against hERG at different concentrations was calculated and the range of the half maximal inhibitory concentration (IC50) of the compounds was determined. […]

Data set [2] concerns KYSE-520 cell (human esophageal squamous cell carcinoma cell). The data set can be described thus: Inhibition of the proliferation activity of KYSE-520 cell (CellTiter-Glo). As to conditions: read-out: KYSE-520, IC50; KYSE-520 cell proliferation, 5 days; tested form: trifluoroacetate. The method, then:
Test Example 2: Experiment on the Inhibition of the Proliferation Activity of KYSE-520 Cell (Human Esophageal Squamous Cell Carcinoma Cell)
cell: KYSE-520 (JCRB Cell Bank);
kit: CellTiter-Glo® Luminescent Cell Viability Assay Kit (Promega).
inoculation amount of cell: 1500 cells/well;
incubation conditions for compound: 37° C., 5% CO2;
incubation duration: 5 days;
detecting temperature: room temperature;
chemiluminescence detection using the BMG PHERAstar FS reader.
Cells were cultured in a medium containing 10% fetal bovine serum under the culture conditions of 37° C. and 5% CO2. An appropriate amount of cells were plated into a 96-well plate and cultured overnight in an incubator to allow the cells to adhere to the wall. The following day, the medium was removed and a complete medium containing a pre-diluted compound was added and incubated at 37° C. for 5 days. On the fifth day, the detection reagent CellTiter-Glo® was added into each well. Chemiluminescence was adopted to detect the relative luminescence units (RLUs) of the wells.
The result of a well containing cell-free medium, treated with CellTiter-Glo®, was obtained as the blank value. […] The half maximal inhibitory concentration (IC50) of the compound was calculated by fitting the curve according to the four-parameter logistic model.
(In general: Cellular ATP, detected with luciferase, serves as a proxy for viable cell number.)

The target in data set [3] is recombinant full-length human PTPN11 (SHP2) (Homo sapiens, UniProt Q06124). The data set can be described thus: Inhibition of in vitro enzyme activity of SHP2 (DiFMUP fluorescence endpoint assay). Conditions: read-out: IC50 (nM), inhibition of the SHP2 enzyme activity; SHP2 0.5 nM, DiFMUP 200 μM, IRS-1 0.5 μM; 60 min incubation; tested form: trifluoroacetate. How it is done:
Test Example 1: Experiment on the Inhibition of In Vitro Enzyme Activity of SHP2 (Protein Phosphatase)
phosphatase: recombinant full-length human PTPN11 (SHP2), active (SignalChem);
substrate: 6,8-difluoro-4-methylumbelliferyl phosphate (DiFMUP) (Invitrogen);
activating peptide: IRS1_pY1172(dPEG8)pY1222 (IRS1) (BPS Bioscience);
terminator: bpv(phen) (bpv) (Abcam).
SHP2 concentration: 0.5 nM;
DiFMUP concentration: 200 μM;
IRS-1 concentration: 0.5 μM;
bpv concentration: 160 μM;
buffer systems: 60 mM Hepes pH 7.2; 75 mM NaCl; 75 mM KCl; 0.05% surfactant P20; 1 mM EDTA; 5 mM DTT;
incubation duration of compound and enzyme: 60 minutes;
reaction time of enzyme and substrate: 30 minutes;
parameters for microplate reader: BMG PHERAstar fluorescence microplate reader at an excitation wavelength of 340 nm and an emission wavelength of 450 nm.
Test group: A mixture of the test compound and the phosphatase SHP2 together with the activating peptide IRS-1 were incubated in the buffer system at room temperature for 60 minutes. The substrate DiFMUP was added to initiate the reaction and incubated at room temperature for 30 minutes. Thereafter, bpv was added to terminate the reaction. The reaction plate was placed in the microplate reader, and the fluorescence intensities of the wells in the plate were measured using an endpoint assay. […]

Consider `C[C@@H]1OCC2(CCN(c3cnc(Sc4ccnc(N5CC(F)(CO)C5)c4Cl)cn3)CC2)[C@@H]1N`, for which the values for the IC50 in data set [1], in data set [2] and in data set [3] were more than 10 µM, 640 nM and 2.2 nM, respectively.
